In US10760111B2, “Reagents for electrochemical test strips” (dated 2020):

Assay: Accelerated aging of test strips: change in slope of glucose calibration curve (enzyme stability in dry reagent)
Conditions: up to 40 days at 50° C.; FIG. 12, 13

For “tetramethylammonium salt of the conjugate base of 3-[N-Tris(hydroxymethyl)methylamino]-2-hydroxypropanesulfonic Acid”, the “enzyme stability in dry reagent (slope and intercept on aging)” value was “superior to TMA-TES”.
